Measurements: patent publication US20240057587A1, “ORGANIC AMMONIUM SALT AND HYDROGEN-BONDING MATERIAL TREATMENT AGENT USING SAME” (MIYOSHI OIL & FAT CO.,LTD., priority 2019, published 2024)

Amino acid sequences for entries named in this document (tags omitted). A change or cut given only in a name is not applied to a line headed by its entry.
UniProt P07374, whole entry, looked up: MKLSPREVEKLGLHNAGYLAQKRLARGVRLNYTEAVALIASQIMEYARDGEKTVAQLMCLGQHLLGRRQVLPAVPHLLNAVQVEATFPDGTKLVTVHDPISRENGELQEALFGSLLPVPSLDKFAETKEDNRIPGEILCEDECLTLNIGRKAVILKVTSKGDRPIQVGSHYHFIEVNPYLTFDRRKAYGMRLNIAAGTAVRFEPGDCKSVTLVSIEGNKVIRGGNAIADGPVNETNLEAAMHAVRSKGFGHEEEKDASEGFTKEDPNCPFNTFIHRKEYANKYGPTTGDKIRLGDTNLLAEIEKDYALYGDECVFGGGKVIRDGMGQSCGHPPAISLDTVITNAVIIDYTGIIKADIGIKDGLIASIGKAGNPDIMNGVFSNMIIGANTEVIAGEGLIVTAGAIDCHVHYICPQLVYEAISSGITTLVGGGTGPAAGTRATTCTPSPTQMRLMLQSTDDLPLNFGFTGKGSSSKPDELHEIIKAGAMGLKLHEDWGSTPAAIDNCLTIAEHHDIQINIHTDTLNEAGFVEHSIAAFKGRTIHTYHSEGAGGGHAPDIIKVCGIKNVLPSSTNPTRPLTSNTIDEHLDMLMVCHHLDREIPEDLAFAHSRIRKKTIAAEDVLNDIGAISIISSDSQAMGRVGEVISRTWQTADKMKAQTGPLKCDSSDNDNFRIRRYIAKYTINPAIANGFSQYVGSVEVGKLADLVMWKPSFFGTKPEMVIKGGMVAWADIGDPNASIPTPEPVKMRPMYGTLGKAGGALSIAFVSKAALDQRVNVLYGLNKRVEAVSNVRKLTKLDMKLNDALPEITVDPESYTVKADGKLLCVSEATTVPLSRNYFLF
UniProt P00004: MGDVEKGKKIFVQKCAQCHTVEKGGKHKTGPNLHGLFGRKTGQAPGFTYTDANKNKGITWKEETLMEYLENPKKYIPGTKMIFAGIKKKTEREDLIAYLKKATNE

What was measured:
[1] = molecular target: T1, urease (Canavalia ensiformis, UniProt P07374); test: Enzyme long-term stability (1): urease activity retention, solid sample; type: biochemical, sword bean; details: 40° C., 80% RH
[2] = molecular target: T1, urease; test: Enzyme long-term stability (1): urease activity retention, 50% aqueous solution; type: biochemical, sword bean; details: urease in 50 wt % aqueous solution of compound, 40° C., 80% RH
[3] = molecular target: T2, cytochrome C (Equus caballus, UniProt P00004); test: Protein long-term stability (IR and UV spectrum), solid sample; design: species or system Horse; details: 40° C., 80% RH
[4] = molecular target: T2, cytochrome C; test: Protein long-term stability, 50% aqueous solution; design: species or system Horse; details: cytochrome C in 50 wt % aqueous solution of compound, 40° C.
[5] = system: DNA; test: DNA long-term stability, 50% aqueous solution; details: 40° C., 80% RH
[6] = Metal oxide dispersibility test (zirconium oxide); type: physicochemical; details: 0.25 g compound, 0.50 g water, 0.10 g zirconium oxide (IV); visual
[7] = Metal oxide dispersibility test (titanium oxide); type: physicochemical; details: 0.25 g compound, 0.50 g water, 0.10 g titanium oxide (IV); visual
[8] = Carbon nanotube dispersibility test; type: physicochemical; details: 0.25 g compound, 0.75 g water, 0.025 g carbon nanotubes; visual
[9] = Organic dye dispersibility test; type: physicochemical; details: 0.2 g compound, 0.7 g water, 0.1 g Vali Fast Black 3830; ultrasonic dispersion; after 24 hours; visual
[10] = molecular target: T1, urease; details: 40° C., 80% RH

SMILES: OCCN(CCO)CCO
- Enzyme activity retention rate(%) (after 30 days) Stabilizer: Enzyme = 0.1:1 ([1]; Stabilizer:Enzyme = 0.1:1): 14%
- Enzyme activity retention rate(%) (after 30 days) Stabilizer: Enzyme = 1:1 ([1]; Stabilizer:Enzyme = 1:1): 41%
- Enzyme activity retention rate(%) (after 30 days) Stabilizer: Enzyme = 1:1 [2]: 11%
- Protein long-term stability (after 30 days) Stabilizer: Protein = 0.1:1 ([3]; Stabilizer:Protein = 0.1:1): ◯
- Protein long-term stability (after 30 days) Stabilizer: Protein = 1:1 ([3]; Stabilizer:Protein = 1:1): ◯
- Protein long-term stability (after 30 days) Stabilizer: Protein = 10:1 ([3]; Stabilizer:Protein = 10:1): ◯
- Protein long-term stability (after 30 days) Stabilize:Protein = 1:1 [4]: ○
- DNA long-term stability (after 30 days) Stabilizer: DNA = 1:1 [5]: ○
- Zirconium oxide dispersibility [6]: ○
- Titanium oxide dispersibility [7]: ○
- Carbon nanotube dispersibility [8]: ○
- Dye dispersibility [9]: ○
- Enzyme activity retention rate (%) (after 30 days) Stabilizer:Enzyme = 1:1, Mixed by mortar ([10]; solid sample mixed by mortar): 5%
- Enzyme activity retention rate (%) (after 30 days) Stabilizer:Enzyme = 1:1, Solvent distilled away from dissolution solution ([10]; solid sample, solvent distilled away from dissolution solution): 41%
